Target: rat NPFF1 receptor (Rattus norvegicus, UniProt Q9EP86)
Assay: [125I]D-Tyr-NPFF radioligand binding, membranes of COS-7 cells transiently expressing cloned rat NPFF1
Set-up: expressed in transfected cells; host or cells: COS-7 (transient)
Conditions: competition of [125I]D-Tyr-NPFF binding; COS-7 membranes
Protocol: Transfected cells from culture flasks are scraped into 5 ml of 20 mM Tris-HCl, 5 mM EDTA, pH 7.5, and lysed by sonication. The cell lysates are centrifuged at 1000 rpm for 5 min. at 4° C., and the supernatant is centrifuged at 30,000×g for 20 min. at 4° C. […] Optimal membrane suspension dilutions, defined as the protein concentration required to bind less than 10% of the added radioligand, […], unlabeled compounds, and binding buffer to a final volume of 250 μl. In equilibrium saturation binding assays membrane preparations are incubated in the presence of increasing concentrations of [^3H]-labeled compound. […] Competition assay: 50 pM radioligand, 10-12 points. Binding reaction mixtures are incubated for 2 hr at 25° C., and the reaction stopped by filtration through a double layer of GF filters treated with 0.1% polyethyleneimine, using a cell harvester. Wash buffer: 50 mM Tris-HCl, 0.1% BSA. Radioactivity may be measured by scintillation counting and data are analyzed by a computerized non-linear regression program. Non-specific binding is defined as the amount of radioactivity remaining after incubation of membrane protein in the presence of 1 μM final concentration […]. Protein concentration may be measured by the Bradford method using Bio-Rad Reagent, with bovine serum albumin as a standard. […]

Chains of the proteins cited; added tags and fusions are not shown. Lines headed by an entry give the natural chain unless they say otherwise; changes in a name come on top.
UniProt Q9EP86: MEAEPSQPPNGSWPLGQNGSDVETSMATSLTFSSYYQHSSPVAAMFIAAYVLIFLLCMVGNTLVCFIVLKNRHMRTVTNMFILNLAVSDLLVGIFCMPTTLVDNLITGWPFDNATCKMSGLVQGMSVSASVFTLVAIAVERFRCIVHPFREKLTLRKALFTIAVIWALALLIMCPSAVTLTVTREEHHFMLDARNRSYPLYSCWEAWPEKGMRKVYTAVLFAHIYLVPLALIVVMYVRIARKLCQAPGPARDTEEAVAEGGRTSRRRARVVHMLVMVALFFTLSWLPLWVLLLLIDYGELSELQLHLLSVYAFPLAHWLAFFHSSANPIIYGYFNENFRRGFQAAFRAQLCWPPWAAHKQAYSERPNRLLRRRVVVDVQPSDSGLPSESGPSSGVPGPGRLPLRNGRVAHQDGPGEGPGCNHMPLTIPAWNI

Dynorphin A1-13
pKi for cloned rat NPFF1 receptor binding in COS-7 cells, MEAN: 6.838

ibogaine
pKi for cloned rat NPFF1 receptor binding in COS-7 cells, MEAN: ≤ 5

Reference: US7276339B2 (H. Lundbeck A/S, priority 1998, dated 2007)
